One assay has as its target RET (Homo sapiens, UniProt P07949). The assay can be described thus: RET biochemical assay (CisBio HTRF kinEASE). The following applies: read-out: RET IC50. A general note: TR-FRET usually uses a lanthanide donor and a delayed reading to cut background.
In the next assay the target is KDR (Homo sapiens, UniProt P35968). The assay can be described thus: KDR biochemical assay (CisBio HTRF kinEASE). The following applies: read-out: KDR IC50.
The target in assay [1] is T1, BaF3 cells expressing KIF5B-RET (Homo sapiens, UniProt P07949+P33176).
T1 sequence (P33176+P07949 with tags, fused parts or gaps): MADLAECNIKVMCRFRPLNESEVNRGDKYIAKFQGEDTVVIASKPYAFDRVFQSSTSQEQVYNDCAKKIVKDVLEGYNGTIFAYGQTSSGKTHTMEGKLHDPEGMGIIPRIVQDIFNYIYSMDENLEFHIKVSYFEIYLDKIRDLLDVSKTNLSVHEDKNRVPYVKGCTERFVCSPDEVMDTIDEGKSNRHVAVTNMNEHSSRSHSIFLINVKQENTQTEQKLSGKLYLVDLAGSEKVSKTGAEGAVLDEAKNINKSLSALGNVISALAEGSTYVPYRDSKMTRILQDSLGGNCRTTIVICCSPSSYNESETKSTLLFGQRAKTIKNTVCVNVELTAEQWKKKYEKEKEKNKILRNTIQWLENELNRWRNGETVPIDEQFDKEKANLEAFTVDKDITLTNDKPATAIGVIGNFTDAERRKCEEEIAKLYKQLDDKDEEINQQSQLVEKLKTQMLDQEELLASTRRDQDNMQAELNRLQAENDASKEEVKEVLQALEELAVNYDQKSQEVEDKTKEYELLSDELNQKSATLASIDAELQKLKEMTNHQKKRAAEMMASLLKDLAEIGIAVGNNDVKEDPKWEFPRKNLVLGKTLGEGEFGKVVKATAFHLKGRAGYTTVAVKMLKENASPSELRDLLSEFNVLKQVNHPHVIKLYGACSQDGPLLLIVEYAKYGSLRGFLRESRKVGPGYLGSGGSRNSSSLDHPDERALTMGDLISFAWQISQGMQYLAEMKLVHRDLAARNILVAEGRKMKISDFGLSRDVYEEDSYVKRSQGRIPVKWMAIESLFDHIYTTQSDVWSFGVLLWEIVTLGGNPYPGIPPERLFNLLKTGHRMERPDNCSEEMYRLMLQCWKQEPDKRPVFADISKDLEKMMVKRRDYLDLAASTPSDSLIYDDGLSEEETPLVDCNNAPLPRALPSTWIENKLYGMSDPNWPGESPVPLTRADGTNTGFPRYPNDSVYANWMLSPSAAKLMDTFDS
The assay can be described thus: BaF3 cellular assay, RET-driven line (CellTiter-Glo viability). The following applies: read-out: RET IC50.

Protein sequences, listed by entry. Tags and fused reporters are not part of them. Residues count along the entry.
UniProt P07949, 29-1114: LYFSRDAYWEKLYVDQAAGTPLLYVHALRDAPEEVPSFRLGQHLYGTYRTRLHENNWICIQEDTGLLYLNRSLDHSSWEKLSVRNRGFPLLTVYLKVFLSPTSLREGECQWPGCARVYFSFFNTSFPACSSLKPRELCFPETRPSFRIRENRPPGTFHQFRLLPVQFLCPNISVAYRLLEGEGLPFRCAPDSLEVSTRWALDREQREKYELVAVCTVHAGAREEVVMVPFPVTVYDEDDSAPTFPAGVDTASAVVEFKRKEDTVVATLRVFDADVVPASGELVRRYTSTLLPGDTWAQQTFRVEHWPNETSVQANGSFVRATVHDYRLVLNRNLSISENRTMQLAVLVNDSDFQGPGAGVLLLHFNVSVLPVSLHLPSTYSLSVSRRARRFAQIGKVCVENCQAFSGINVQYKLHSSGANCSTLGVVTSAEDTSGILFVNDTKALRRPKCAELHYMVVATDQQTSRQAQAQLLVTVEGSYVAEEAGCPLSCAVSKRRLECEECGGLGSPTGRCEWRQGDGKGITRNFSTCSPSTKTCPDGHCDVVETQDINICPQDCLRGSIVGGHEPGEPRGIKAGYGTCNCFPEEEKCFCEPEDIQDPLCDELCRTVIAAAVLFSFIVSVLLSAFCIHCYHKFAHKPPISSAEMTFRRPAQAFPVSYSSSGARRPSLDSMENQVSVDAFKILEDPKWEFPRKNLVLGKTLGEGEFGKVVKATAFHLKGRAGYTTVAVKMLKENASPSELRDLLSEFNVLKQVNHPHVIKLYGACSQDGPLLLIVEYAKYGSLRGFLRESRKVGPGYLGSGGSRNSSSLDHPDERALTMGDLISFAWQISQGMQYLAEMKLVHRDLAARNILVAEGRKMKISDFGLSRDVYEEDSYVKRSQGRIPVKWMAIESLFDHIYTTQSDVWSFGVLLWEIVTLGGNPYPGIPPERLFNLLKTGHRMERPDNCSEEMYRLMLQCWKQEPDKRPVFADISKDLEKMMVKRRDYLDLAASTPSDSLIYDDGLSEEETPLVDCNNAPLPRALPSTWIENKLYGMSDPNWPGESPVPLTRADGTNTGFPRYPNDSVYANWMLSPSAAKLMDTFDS
UniProt P35968, 20-1356: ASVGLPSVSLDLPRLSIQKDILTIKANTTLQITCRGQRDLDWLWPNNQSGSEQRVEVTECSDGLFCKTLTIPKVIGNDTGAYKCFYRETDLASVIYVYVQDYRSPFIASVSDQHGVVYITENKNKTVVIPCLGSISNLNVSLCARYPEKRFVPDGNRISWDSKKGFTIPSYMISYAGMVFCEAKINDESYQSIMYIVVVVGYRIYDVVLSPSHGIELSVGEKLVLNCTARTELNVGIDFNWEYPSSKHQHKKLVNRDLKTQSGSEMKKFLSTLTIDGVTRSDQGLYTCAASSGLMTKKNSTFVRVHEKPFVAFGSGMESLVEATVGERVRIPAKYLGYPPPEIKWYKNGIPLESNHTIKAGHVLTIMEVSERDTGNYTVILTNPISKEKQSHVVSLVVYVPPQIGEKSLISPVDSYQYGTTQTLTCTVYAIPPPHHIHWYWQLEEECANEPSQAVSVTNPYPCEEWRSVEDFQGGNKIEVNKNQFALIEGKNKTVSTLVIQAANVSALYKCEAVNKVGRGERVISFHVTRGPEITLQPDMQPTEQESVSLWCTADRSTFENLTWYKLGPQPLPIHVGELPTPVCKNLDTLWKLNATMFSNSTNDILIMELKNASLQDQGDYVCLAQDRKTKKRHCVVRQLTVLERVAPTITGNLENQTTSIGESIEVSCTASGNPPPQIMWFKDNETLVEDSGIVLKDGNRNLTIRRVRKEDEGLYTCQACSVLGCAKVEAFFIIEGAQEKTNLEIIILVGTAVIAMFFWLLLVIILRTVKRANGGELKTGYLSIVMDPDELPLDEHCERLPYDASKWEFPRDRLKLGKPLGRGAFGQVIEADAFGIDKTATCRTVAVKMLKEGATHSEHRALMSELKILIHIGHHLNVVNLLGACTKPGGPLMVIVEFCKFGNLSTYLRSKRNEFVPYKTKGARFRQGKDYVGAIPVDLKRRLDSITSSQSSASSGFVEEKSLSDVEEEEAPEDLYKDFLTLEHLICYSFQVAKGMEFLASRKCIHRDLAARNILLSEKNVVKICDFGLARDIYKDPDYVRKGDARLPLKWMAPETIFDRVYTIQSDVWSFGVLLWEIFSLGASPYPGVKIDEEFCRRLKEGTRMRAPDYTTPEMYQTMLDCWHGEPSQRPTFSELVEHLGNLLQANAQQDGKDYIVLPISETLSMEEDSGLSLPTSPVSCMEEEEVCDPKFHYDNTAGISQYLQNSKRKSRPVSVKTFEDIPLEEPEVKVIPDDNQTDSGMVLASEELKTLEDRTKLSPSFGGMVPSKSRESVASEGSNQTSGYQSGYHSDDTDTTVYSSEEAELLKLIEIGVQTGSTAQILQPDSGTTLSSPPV

Where a name gives a salt, the structure may show the parent alone.

A word on the IC50: it is the point on the concentration scale where inhibition reaches its midpoint. Take `COc1cc2ncnc(Nc3ccc(F)c(O)c3)c2cc1OC`: the concentration for half-maximal inhibition (IC50) was found to be 3.2 nM at RET, 72 nM on KDR and 490 nM in assay [1].

Regarding `COc1cc2ncnc(N3CCc4c(O)cccc43)c2cc1OC`, at KDR, the concentration for half-maximal inhibition (IC50) stood at 9500 nM.

Regarding `COc1cc2ncnc(Nc3cccc(O)c3O)c2cc1OC` [Compound 10, 3-((6,7-Dimethoxyquinazolin-4-yl)amino)benzene-1,2-diol hydrochloride], the IC50 on RET was found to be 3.9 nM; on KDR, 2300 nM; in assay [1], 1100 nM.

As for `COc1cc2ncnc(Nc3cccc(O)c3Br)c2cc1OC` [Compound 11, 2-Bromo-3-((6,7-dimethoxyquinazolin-4-yl)amino)phenol hydrochloride], the IC50 worked out at 23 nM at RET and 4100 nM on KDR.

Turning to `COc1cc2ncnc(Nc3cccc(O)c3Cl)c2cc1OC` [Compound 12, 2-Chloro-3-((6,7-dimethoxyquinazolin-4-yl)amino)phenol hydrochloride], the IC50 on RET came out at 19 nM; at KDR it was 2500 nM.

Regarding `COc1cc2ncnc(Nc3cccc(O)c3C)c2cc1OC` [Compound 13, 3-((6,7-Dimethoxyquinazolin-4-yl)amino)-2-methylphenol hydrochloride], the 50% inhibitory concentration (IC50) at RET worked out at 190 nM.

Take `COc1cc2ncnc(Nc3cccc(O)c3F)c2cc1OC` [Compound 14, 3-((6,7-Dimethoxyquinazolin-4-yl)amino)-2-fluorophenol]: the concentration for half-maximal inhibition (IC50) on RET worked out at 10 nM.

As for `COc1cc2ncnc(Nc3c(Cl)ccc(O)c3F)c2cc1OC` [Compound 34, 4-Chloro-3-((6,7-dimethoxyquinazolin-4-yl)amino)-2-fluorophenol], the IC50 on RET stood at 4.8 nM.

For `COc1cc2ncnc(Nc3cc(F)cc(O)c3C)c2cc1OC` [Compound 35, 3-((6,7-Dimethoxyquinazolin-4-yl)amino)-5-fluoro-2-methylphenol hydrochloride], the IC50 at RET amounted to 21 nM; on KDR, 5900 nM.

As to `COc1cc2ncnc(Nc3c(Cl)ccc(O)c3Cl)c2cc1OC` [Compound 39, 2,4-Dichloro-3-((6,7-dimethoxyquinazolin-4-yl)amino)phenol], the IC50 on RET worked out at 9.7 nM.

Consider `COc1cc2ncnc(Nc3c(F)ccc(O)c3Cl)c2cc1OC` [Compound 40, 2-Chloro-3-((6,7-dimethoxyquinazolin-4-yl)amino)-4-fluorophenol], for which the half-maximal inhibitory concentration (IC50) on RET turned out to be 3.9 nM.

With `COc1cc2ncnc(N(C)c3cccc(O)c3)c2cc1OC` [Compound 41, 3-((6,7-Dimethoxyquinazolin-4-yl)(methyl)amino)phenol hydrochloride], the IC50 stood at 210 nM at RET and 7200 nM in assay [1].

As to `COc1cc2ncnc(Sc3cccc(O)c3)c2cc1OC` [Compound 43, 3-((6,7-Dimethoxyquinazolin-4-yl)thio)phenol hydrochloride], the 50% inhibitory concentration (IC50) on KDR was found to be 210 nM.

For the origin of these results see publication PMC4896931, “The discovery of 2-substituted phenol quinazolines as potent RET kinase inhibitors with improved KDR selectivity” (European Journal of Medicinal Chemistry, 2016).
